The values that follow come from patent US20250326933A1, “SOLID COMPOSITION OF INDOCYANINE GREEN AND SODIUM FLUORESCEIN” (ICROM Srl, priority 2021, published 2025).

This series in a line: Solubility in water evaluated by filtration of the solution on a syringe filter. The following applies: without sodium iodide, dry isolated powder after crystallization, 20-25° C., 5 mg/ml or 2.5 mg/ml.

Molecules are shown by their SMILES.

Take `CC1(C)C(/C=C/C=C/C=C/C=C2\N(CCCCS(=O)(=O)[O-])c3ccc4ccccc4c3C2(C)C)=[N+](CCCCS(=O)(=O)[O-])c2ccc3ccccc3c21.[Na+]` [compound of formula (IA), 1H-benz[e]indole, 2-[7-[1,3-dihydro-1,1-dimethyl-3-(4-sulfobutyl)-2H-benz[e]indol-2-ylidene]-1,3,5-heptatrienyl]-1,1-dimethyl-3-(4-sulfobutyl) hydroxide, inner salt, sodium salt]: the Solubility in water result is “not soluble”.
